Values quoted from earlier work as cited in US20240335383A1, “NANOPARTICULATE FORMULATION” (NewImmune II, LLC, priority 2021, published 2024).

What was measured:
[1] = cited from earlier work
[2] = cited from earlier work; remark: listed apart in the source
[3] = human, in vivo, sc; cited from earlier work

IL-2: cytokine interleukin-2; approved in recombinant form as aldesleukin, sold as Proleukin
dose with hepatic abnormalities (increases in aspartate aminotransferase and bilirubin) ([1]; rat, in vivo, sc): 0.3 mg/kg/day | doses with slight decreases in red blood cell counts (including hematocrit and hemoglobin) ([1]; rat, in vivo, sc): ≥ 0.1 mg/kg/day | time to reversal of most clinical and histopathologic findings after termination of treatment ([1]; rat, in vivo, sc): ≤ 4 weeks | white blood cell counts ([1]; rat, in vivo, sc): increased in a dose-dependent manner | doses not tolerated, resulting in death or moribund termination by Day 7 ([1]; rats, subcutaneous): ≥ 1 mg/kg/day | in vivo half-life [2]: < 10 min | systemic exposure [3]: minimal systemic exposure
